Data from patent US20080021067A1, “Methods For The Treatment Of Substance Abuse And Addiction” (priority 2004, published 2008).

Protein sequences, listed by entry. Tags and fused reporters are not part of them.
UniProt P33032, whole entry: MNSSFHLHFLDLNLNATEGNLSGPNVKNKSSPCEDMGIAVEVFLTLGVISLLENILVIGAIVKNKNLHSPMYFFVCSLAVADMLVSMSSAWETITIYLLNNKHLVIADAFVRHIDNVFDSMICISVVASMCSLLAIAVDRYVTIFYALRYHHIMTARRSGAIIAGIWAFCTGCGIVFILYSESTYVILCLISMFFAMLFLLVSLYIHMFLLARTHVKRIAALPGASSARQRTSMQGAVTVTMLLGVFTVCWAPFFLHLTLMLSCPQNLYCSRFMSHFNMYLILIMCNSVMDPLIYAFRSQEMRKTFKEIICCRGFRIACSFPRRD
UniProt Q01726, whole entry: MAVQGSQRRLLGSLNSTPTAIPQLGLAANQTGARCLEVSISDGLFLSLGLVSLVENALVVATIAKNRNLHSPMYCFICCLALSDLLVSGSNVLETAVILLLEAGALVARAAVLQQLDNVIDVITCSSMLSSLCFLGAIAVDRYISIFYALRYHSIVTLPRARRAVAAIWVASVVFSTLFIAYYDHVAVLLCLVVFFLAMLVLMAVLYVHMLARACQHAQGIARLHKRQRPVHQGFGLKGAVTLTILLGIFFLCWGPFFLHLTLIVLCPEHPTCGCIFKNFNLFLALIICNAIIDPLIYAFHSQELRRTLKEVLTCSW

What was measured:
hMC5R [1] = target: T1, hMC5R (Homo sapiens, UniProt P33032); assay: Membrane binding assay, 125I-NDP-alpha-MSH competition; settings: read-out: Binding Assay IC50 hMC5R; cloned human MCR in mouse L- or CHO-cell membranes
hMC1bR [2] = target: T2, hMC1bR (Homo sapiens, UniProt Q01726); assay: as above; settings: read-out: Binding Assay IC50 hMC1bR; cloned human MCR in mouse L- or CHO-cell membranes
hMC5R [3] = target: T1, hMC5R; assay: cAMP functional assay (agonist); type: cell-based; settings: read-out: cAMP Assay EC50 hMC5R; cells expressing human melanocortin receptor
hMC1bR [4] = target: T2, hMC1bR; assay: cAMP functional assay (agonist); type: cell-based; settings: read-out: cAMP Assay EC50 hMC1bR; cells expressing human melanocortin receptor

| SMILES | IC50 (hMC5R [1]) | IC50 (hMC1bR [2]) | EC50 (hMC5R [3]) | EC50 (hMC1bR [4]) |
| --- | --- | --- | --- | --- |
| CNC(=O)c1cc(F)ccc1C1CCN(C(=O)[C@@H]2CN(C(C)(C)C)C[C@H]2c2ccc(F)cc2F)CC1 | 5250 nM | 7600 nM | > 5000 nM | 1800 nM |
| CNC(=O)c1ccc(F)cc1C1CCN(C(=O)[C@@H]2CN(C(C)(C)C)C[C@H]2c2ccc(F)cc2F)CC1 |  |  |  | 1800 nM |
| CNC(=O)c1cc(C)ccc1C1CCN(C(=O)[C@@H]2CN(C(C)(C)C)C[C@H]2c2ccc(F)cc2F)CC1 | 3900 nM |  | > 5000 nM | 1100 nM |
| CNC(=O)c1ccc(C)cc1C1CCN(C(=O)[C@@H]2CN(C(C)(C)C)C[C@H]2c2ccc(F)cc2F)CC1 |  |  |  | 580 nM |
